Source: article PMC5026484 (2016)

Target: T1, bMERB domain (Rab binding domain) of Mical-cL, residues 534-683 (human, UniProt O94851 1796-1945)
T1 chain: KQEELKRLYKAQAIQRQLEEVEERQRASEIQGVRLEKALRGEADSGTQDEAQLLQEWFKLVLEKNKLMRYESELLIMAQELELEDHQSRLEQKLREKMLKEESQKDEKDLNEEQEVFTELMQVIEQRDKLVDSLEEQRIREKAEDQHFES
Experiment: ITC; uncorrected Rab35 concentration

Kd: 2.2 µM
B1: Rab35 (partly loaded with GppNHp) (natural protein)
chain: not shown
